What was measured:
[1] = molecular target: T1, human opioid receptor-like (ORL-1) (Homo sapiens (Human), UniProt P41146); experiment: In vitro ORL-1 receptor [35S]GTPγS functional assay; format: biochemical; conditions: mean ± SEM; for EC50: read-out: GTPγS ORL-1 EC50
[2] = molecular target: μ-opioid receptor (Homo sapiens (Human), UniProt P35372); experiment: In vitro mu-opioid receptor binding assay ([3H]-diprenorphine displacement); conditions: read-out: Ki [Average ± Std Deviation] Opioid Receptor Mu
[3] = molecular target: T2, kappa opioid receptor (Homo sapiens (Human), UniProt P41145); experiment: In vitro kappa-opioid receptor [35S]GTPγS functional assay; format: biochemical; conditions: mean ± SEM; for EC50: read-out: GTPγS Opioid Receptor Kappa EC50
[4] = molecular target: delta opioid receptor (Homo sapiens (Human), UniProt P41143); experiment: In vitro delta-opioid receptor binding assay ([3H]-Naltrindole displacement); conditions: read-out: Ki [Average ± Std Deviation] Opioid Receptor Delta; recombinant receptor expressed in CHO-K1 cells
[5] = molecular target: T1, human opioid receptor-like (ORL-1); experiment: In vitro ORL-1 receptor binding assay ([3H]-nociceptin displacement); conditions: read-out: Ki [Average ± Std Deviation] ORL-1; membranes from recombinant HEK-293 cells
[6] = molecular target: T2, kappa opioid receptor; experiment: In vitro kappa-opioid receptor binding assay ([3H]-U69,593 displacement); conditions: read-out: Ki [Average ± Std Deviation] Opioid Receptor Kappa; membranes from recombinant HEK-293 cells

Amino acid sequences for entries named in this document (tags omitted). A change or cut given only in a name is not applied to a line headed by its entry.
UniProt P41146: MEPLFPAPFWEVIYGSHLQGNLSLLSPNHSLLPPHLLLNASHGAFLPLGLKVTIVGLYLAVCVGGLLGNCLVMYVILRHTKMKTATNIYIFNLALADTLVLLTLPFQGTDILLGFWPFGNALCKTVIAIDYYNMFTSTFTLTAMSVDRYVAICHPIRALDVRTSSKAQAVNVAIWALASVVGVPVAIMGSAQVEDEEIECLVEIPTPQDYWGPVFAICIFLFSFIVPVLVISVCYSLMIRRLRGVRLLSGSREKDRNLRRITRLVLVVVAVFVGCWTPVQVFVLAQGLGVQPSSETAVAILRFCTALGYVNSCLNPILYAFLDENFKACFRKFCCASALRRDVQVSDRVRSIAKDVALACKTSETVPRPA
UniProt P35372: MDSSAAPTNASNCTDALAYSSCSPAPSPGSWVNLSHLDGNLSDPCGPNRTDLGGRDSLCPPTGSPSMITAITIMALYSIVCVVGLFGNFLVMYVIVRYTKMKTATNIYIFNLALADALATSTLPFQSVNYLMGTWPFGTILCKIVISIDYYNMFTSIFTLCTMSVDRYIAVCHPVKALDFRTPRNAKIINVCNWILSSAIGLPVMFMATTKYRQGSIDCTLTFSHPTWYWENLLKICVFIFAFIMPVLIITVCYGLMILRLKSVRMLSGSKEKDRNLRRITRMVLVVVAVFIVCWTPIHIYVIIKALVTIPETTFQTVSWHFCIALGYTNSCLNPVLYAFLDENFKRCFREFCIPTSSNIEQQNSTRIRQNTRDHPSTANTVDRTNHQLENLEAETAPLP
UniProt P41145: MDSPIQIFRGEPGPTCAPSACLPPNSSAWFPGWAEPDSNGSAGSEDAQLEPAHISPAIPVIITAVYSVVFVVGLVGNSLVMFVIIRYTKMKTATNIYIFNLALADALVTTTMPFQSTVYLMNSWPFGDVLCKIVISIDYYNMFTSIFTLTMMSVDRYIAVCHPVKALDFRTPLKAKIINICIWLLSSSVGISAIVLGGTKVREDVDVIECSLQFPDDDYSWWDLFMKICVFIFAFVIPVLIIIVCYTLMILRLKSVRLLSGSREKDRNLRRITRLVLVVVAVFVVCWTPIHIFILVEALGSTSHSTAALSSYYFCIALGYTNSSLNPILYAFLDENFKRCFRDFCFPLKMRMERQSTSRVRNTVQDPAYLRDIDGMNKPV
UniProt P41143: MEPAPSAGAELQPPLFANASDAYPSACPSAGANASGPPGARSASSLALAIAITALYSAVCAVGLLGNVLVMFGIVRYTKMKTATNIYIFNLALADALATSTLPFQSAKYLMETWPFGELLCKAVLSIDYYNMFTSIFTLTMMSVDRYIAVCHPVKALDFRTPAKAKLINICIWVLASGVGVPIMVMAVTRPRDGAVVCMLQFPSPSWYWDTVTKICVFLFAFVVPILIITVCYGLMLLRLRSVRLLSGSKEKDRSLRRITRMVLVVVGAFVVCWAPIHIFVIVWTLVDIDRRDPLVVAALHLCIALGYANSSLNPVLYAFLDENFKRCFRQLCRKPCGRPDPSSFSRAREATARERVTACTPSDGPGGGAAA

| Substance | GTPγS ORL-1 Emax [1] [%] | EC50 [1] [nM] | Ki [2] [nM] | GTPγS Opioid Receptor Kappa Emax [3] [%] | EC50 [3] [nM] | Ki [4] [nM] | Ki [5] [nM] | Ki [6] [nM] |
| --- | --- | --- | --- | --- | --- | --- | --- | --- |
| 1-(2-(4-((endo)-8-cyclooctyl-8-azabicyclo[3.2.1]octan-3-yl)-3-oxo-3,4-dihydroquinoxalin-2-ylamino)acetyl)pyrrolidine-2-carboxylic acid | 73.3 ± 1.7 | 3860 | 1470 | 6.3 | 4590 | > 20000 | 140 | 750 |
| 1-(4-((endo)-8-cyclooctyl-8-azabicyclo[3.2.1]octan-3-yl)-3-oxo-3,4-dihydroquinoxalin-2-yl)piperidine-4-carboxylic acid | 74.7 ± 4.5 |  | 1670 | 0.7 ± 0.9 | > 100000 | 4470 | 109 | 657 |
| 1-(4-((endo)-8-cyclooctyl-8-azabicyclo[3.2.1]octan-3-yl)-3-oxo-3,4-dihydroquinoxalin-2-ylamino)cyclohexanecarboxylic acid | 39 ± 1 | 1770 | > 20000 | 0 | > 20000 | > 20000 | 237 | 920 |
| 2-(4-((endo)-8-cyclooctyl-8-azabicyclo[3.2.1]octan-3-yl)-3-oxo-3,4-dihydroquinoxalin-2-ylamino)acetic acid | 55.3 ± 5.8 | 400 | 1170 |  |  | 12900 | 61.4 | 2840 |
| 3-oxo-4-((endo)-9-(2,4,4-trimethylpentan-2-yl)-9-azabicyclo[3.3.1]nonan-3-yl)-3,4-dihydroquinoxaline-2-carboxylic acid | 105.3 ± 5.7 | 17 | > 20000 |  |  | > 20000 | 2.8 | 16800 |
| 4-(1-cyclooctylpiperidin-4-yl)-3-oxo-3,4-dihydroquinoxaline-2-carboxylate | 65.3 ± 2.6 | 964 | 7430 |  |  | 31700 | 111 | 1030 |
| 4-((endo)-8-((cis)-4-isopropylcyclohexyl)-8-azabicyclo[3.2.1]octan-3-yl)-3-oxo-3,4-dihydroquinoxaline-2-carboxylic acid | 67.8 ± 1.9 | 3570 | 5300 |  |  | 68800 | 131 | 2060 |
| 4-((endo)-9-((exo)-bicyclo[3.3.1]nonan-9-yl)-9-azabicyclo[3.3.1]nonan-3-yl)-3-oxo-3,4-dihydroquinoxaline-2-carboxylic acid | 97.5 ± 1.3 | 106 | 3430 |  |  | 2140 | 8.5 | 4470 |
| 4-((endo)-9-cyclooctyl-3-oxa-9-azabicyclo[3.3.1]nonan-7-yl)-3-oxo-3,4-dihydroquinoxaline-2-carboxylic acid | 95.8 ± 3.6 | 4250 | 46000 |  |  | 533000 | 260 | 6000 |
| 4-((exo)-8-cyclooctyl-8-azabicyclo[3.2.1]octan-3-yl)-3-oxo-N-(6-oxo-1,6-dihydropyridin-3-yl)-3,4-dihydroquinoxaline-2-carboxamide | 115 ± 5 | 1360 | 9840 |  |  | > 100000 | 103 | 2600 |
| endo-4-(9-adamantan-1-yl)-9-aza-bicyclo[3.3.1]non-3-yl)-3-oxo-3,4-dihydro -quinoxaline-2-carboxylic acid | 60.0 ± 1.7 | 1830 | 17200 |  |  | 39400 | 29.1 | 5040 |
